In PubChem BioAssay (NCI):
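Growth conditions: 96-well plates. Treatment: test compound, 48 hours, 5 concentrations. Analysis: linear interpolation between bracketing concentrations; unreached endpoints set to highest concentration. Here, GI50 denotes the concentration required for 50% inhibition of growth. TGI denotes the concentration required for complete inhibition of growth.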

Columns and labels:
Assay in all cases: NCI tumour cell line growth inhibition, 48 h; in the data active = GI50 below about 0.43 µM; inactive = the rest
SK-MEL-5 melanoma = test system: SK-MEL-5 melanoma
A498 renal = test system: A498 renal
SN12C renal = test system: SN12C renal
OVCAR-5 ovarian = test system: OVCAR-5 ovarian
RPMI-8226 leukemia = test system: RPMI-8226 leukemia
SK-MEL-2 melanoma = test system: SK-MEL-2 melanoma
P388 leukemia = test system: P388 leukemia
UACC-257 melanoma = test system: UACC-257 melanoma
XF 498 CNS = test system: XF 498 CNS
P388/ADR leukemia = test system: P388/ADR leukemia
HCC-2998 colon = test system: HCC-2998 colon
LOX IMVI melanoma = test system: LOX IMVI melanoma
SK-OV-3 ovarian = test system: SK-OV-3 ovarian
KM12 colon = test system: KM12 colon
NCI-H460 lung = test system: NCI-H460 lung
KM20L2 colon = test system: KM20L2 colon
IGROV1 ovarian = test system: IGROV1 ovarian
CCRF-CEM leukemia = test system: CCRF-CEM leukemia
SF-268 CNS = test system: SF-268 CNS
NCI-H322M lung = test system: NCI-H322M lung
DLD-1 colon = test system: DLD-1 colon
SNB-75 CNS = test system: SNB-75 CNS
SN12K1 renal = test system: SN12K1 renal
HL-60(TB) leukemia = test system: HL-60(TB) leukemia
SNB-19 CNS = test system: SNB-19 CNS
HOP-62 NSCLC = test system: HOP-62 NSCLC
CAKI-1 renal = test system: CAKI-1 renal
SK-MEL-28 melanoma = test system: SK-MEL-28 melanoma
DMS 114 small cell lung = test system: DMS 114 small cell lung
UO-31 renal = test system: UO-31 renal
HCT-116 colon = test system: HCT-116 colon
A549 NSCLC = test system: A549 NSCLC
HOP-18 NSCLC = test system: HOP-18 NSCLC
HCT-15 colon = test system: HCT-15 colon
HT29 colon = test system: HT29 colon
UACC-62 melanoma = test system: UACC-62 melanoma
NCI-H522 lung = test system: NCI-H522 lung
SF-295 CNS = test system: SF-295 CNS
OVCAR-4 ovarian = test system: OVCAR-4 ovarian
OVCAR-3 ovarian = test system: OVCAR-3 ovarian
SNB-78 CNS = test system: SNB-78 CNS
RXF 393 renal = test system: RXF 393 renal
SF-539 CNS = test system: SF-539 CNS
M19-MEL melanoma = test system: M19-MEL melanoma
NCI/ADR-RES ovarian = test system: NCI/ADR-RES ovarian
MALME-3M melanoma = test system: MALME-3M melanoma
K-562 leukemia = test system: K-562 leukemia
DMS 273 small cell lung = test system: DMS 273 small cell lung
OVCAR-8 ovarian = test system: OVCAR-8 ovarian
EKVX NSCLC = test system: EKVX NSCLC
HOP-92 NSCLC = test system: HOP-92 NSCLC
MCF7 breast = test system: MCF7 breast
U251 CNS = test system: U251 CNS
MOLT-4 leukemia = test system: MOLT-4 leukemia
NCI-H226 lung = test system: NCI-H226 lung
COLO 205 colon = test system: COLO 205 colon
SW-620 colon = test system: SW-620 colon

COc1cc2c(c3oc4cccc(O)c4c(=O)c13)[C@@H]1C=CO[C@@H]1O2
83.7 µM: TGI (SF-268 CNS)
60.6 µM: TGI (NCI-H460 lung)
64 µM: TGI (SK-OV-3 ovarian)
75.3 µM: TGI (SN12C renal)
38.3 µM: TGI (XF 498 CNS)
42.7 µM: TGI (SF-539 CNS)
> 125 µM: TGI (SK-MEL-5 melanoma) | TGI (RPMI-8226 leukemia) | TGI (UACC-257 melanoma) | TGI (P388/ADR leukemia) | TGI (KM20L2 colon) | TGI (CCRF-CEM leukemia) | TGI (NCI-H322M lung) | TGI (HL-60(TB) leukemia) | TGI (SK-MEL-28 melanoma) | TGI (HCT-116 colon) | TGI (A549 NSCLC) | TGI (HOP-18 NSCLC) | TGI (HCT-15 colon) | TGI (HT29 colon) | TGI (NCI-H522 lung) | TGI (OVCAR-4 ovarian) | TGI (M19-MEL melanoma) | TGI (MALME-3M melanoma) | TGI (K-562 leukemia) | TGI (DMS 273 small cell lung) | TGI (SW-620 colon)
58.7 µM: TGI (A498 renal)
70.3 µM: TGI (LOX IMVI melanoma)
111 µM: TGI (SNB-78 CNS)
10.2 µM: TGI (CAKI-1 renal)
1.72 µM: TGI (P388 leukemia)
72 µM: TGI (MCF7 breast)
26.9 µM: TGI (MOLT-4 leukemia)
32.8 µM: TGI (SK-MEL-2 melanoma)
9.06 µM: TGI (HCC-2998 colon)
39.5 µM: TGI (HOP-92 NSCLC)
29.2 µM: TGI (SN12K1 renal)
20.8 µM: TGI (UACC-62 melanoma)
92.4 µM: TGI (KM12 colon)
inactive: GI50 (SK-MEL-5 melanoma) 107 µM | GI50 (A498 renal) 7.94 µM | GI50 (SN12C renal) 2.22 µM | GI50 (OVCAR-5 ovarian) 10.6 µM | GI50 (RPMI-8226 leukemia) 101 µM | GI50 (SK-MEL-2 melanoma) 4.16 µM | GI50 (UACC-257 melanoma) 54.9 µM | GI50 (XF 498 CNS) 14.1 µM | GI50 (HCC-2998 colon) 3.7 µM | GI50 (LOX IMVI melanoma) 17.9 µM | GI50 (SK-OV-3 ovarian) 19.7 µM | GI50 (KM12 colon) 2.81 µM | GI50 (NCI-H460 lung) 3.98 µM | GI50 (KM20L2 colon) 11.7 µM | GI50 (IGROV1 ovarian) 12.3 µM | GI50 (CCRF-CEM leukemia) 19 µM | GI50 (SF-268 CNS) 11.7 µM | GI50 (NCI-H322M lung) 67.1 µM | GI50 (DLD-1 colon) 0.452 µM | GI50 (SNB-75 CNS) 8.28 µM | GI50 (SN12K1 renal) 6.1 µM | GI50 (HL-60(TB) leukemia) 5.57 µM | GI50 (SNB-19 CNS) 34.6 µM | GI50 (HOP-62 NSCLC) 6.41 µM | GI50 (CAKI-1 renal) 1.23 µM | GI50 (SK-MEL-28 melanoma) 68.7 µM | GI50 (DMS 114 small cell lung) 11.6 µM | GI50 (UO-31 renal) 3.15 µM | GI50 (HCT-116 colon) 20.4 µM | GI50 (A549 NSCLC) 2.8 µM | GI50 (HOP-18 NSCLC) 125 µM | GI50 (HCT-15 colon) 15 µM | GI50 (HT29 colon) 35.6 µM | GI50 (UACC-62 melanoma) 0.938 µM | GI50 (NCI-H522 lung) 42.1 µM | GI50 (SF-295 CNS) 13.3 µM | GI50 (OVCAR-4 ovarian) 60.4 µM | GI50 (OVCAR-3 ovarian) 19.5 µM | GI50 (SNB-78 CNS) 34.3 µM | GI50 (RXF 393 renal) 13.8 µM | GI50 (SF-539 CNS) 13.8 µM | GI50 (M19-MEL melanoma) 35 µM | GI50 (NCI/ADR-RES ovarian) 4.66 µM | GI50 (MALME-3M melanoma) 54.9 µM | GI50 (K-562 leukemia) 125 µM | GI50 (DMS 273 small cell lung) 0.684 µM | GI50 (OVCAR-8 ovarian) 7.85 µM | GI50 (EKVX NSCLC) 1.03 µM | GI50 (HOP-92 NSCLC) 10.4 µM | GI50 (U251 CNS) 14.9 µM | GI50 (MOLT-4 leukemia) 3.5 µM | GI50 (NCI-H226 lung) 15.1 µM | GI50 (COLO 205 colon) 2.14 µM | GI50 (SW-620 colon) 5.02 µM
94 µM: TGI (NCI-H226 lung)
48.6 µM: TGI (OVCAR-8 ovarian)
28.5 µM: TGI (SNB-75 CNS)
34.8 µM: TGI (EKVX NSCLC)
67.9 µM: TGI (NCI/ADR-RES ovarian)
60.7 µM: TGI (OVCAR-5 ovarian)
71.5 µM: TGI (IGROV1 ovarian)
104 µM: TGI (DMS 114 small cell lung)
19.8 µM: TGI (DLD-1 colon)
24.3 µM: TGI (HOP-62 NSCLC)
36.9 µM: TGI (COLO 205 colon)
26.4 µM: TGI (SF-295 CNS)
79.6 µM: TGI (UO-31 renal)
123 µM: TGI (SNB-19 CNS) | TGI (OVCAR-3 ovarian)
38.8 µM: TGI (RXF 393 renal)
65.7 µM: TGI (U251 CNS)
active: GI50 (P388 leukemia) 0.115 µM | GI50 (P388/ADR leukemia) 0.382 µM | GI50 (MCF7 breast) 0.0245 µM
